Measured values published in PubChem BioAssay AID602363 (Broad Institute, 2012).
Several values for one entry are separate records, joined by “and”; a condition that tells them apart may be missing. Equal values may be shown once. Screen size: about 350,000 compounds; about 450 (0.13%) were called active.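 How the source made its calls: active means replicate mean at a twofold rise or more (about +100% in these data); inactive means the rest.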 The list comes from a sample in which actives are over-represented; it also holds similar structures and randomly drawn compounds. Where a structure was tested more than once in an assay, its records may differ in their call.

experiment: UUG initiation codon usage in yeast – whole organism, S. cerevisiae, single point, plate reader, primary screen (AID 602363);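 further: firefly luciferase made from a UUG start codon reports start codon fidelity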; conditions: S. cerevisiae UUG-firefly luciferase reporter, luminescence/redox ratio; at 18.7 µM; stronger effect = higher value

Structure (SMILES) | activity score
O=C(C[C@@H]1C[C@H]2c3cc(NC(=O)NC4CCCCC4)ccc3O[C@H]2[C@H](CO)O1)NCc1ccncc1 | 1.45% (inactive)
CCCN1C[C@H](C)[C@H](OC)CN(C)C(=O)c2cc(NC(=O)C3CCOCC3)ccc2OC[C@@H]1C | 7.64% (inactive)
C[C@H](CO)N1C[C@H](C)[C@@H](CN(C)Cc2ccc(Cl)c(Cl)c2)Oc2ccc(NC(=O)Nc3ccc(C(F)(F)F)cc3)cc2CC1=O | -6.41% (inactive)
COc1ccc(S(=O)(=O)N(C)C[C@@H]2OCCCC[C@@H](C)Oc3ccc(NC(=O)c4ccccc4)cc3C(=O)N([C@@H](C)CO)C[C@H]2C)cc1 | -7.34% (inactive)
CO[C@H]1CN(C)C(=O)c2cc(NC(=O)Nc3cccc(F)c3)ccc2OC[C@H](C)N(C(C)=O)C[C@H]1C | 2.41% (inactive)
CCCc1cn(CC[C@@H]2CC[C@@H](NS(=O)(=O)c3ccccc3Cl)[C@@H](CO)O2)nn1 | -13.1% (inactive)
CN1C[C@@H]2[C@H](c3ccccc31)[C@@H](CO)N2C(=O)Nc1ccccc1 | -3.49% (inactive)
C[C@@H]1CN([C@H](C)CO)C(=O)c2cc(NC(=O)c3ccncc3)ccc2O[C@H]1CN(C)C(=O)Nc1ccc(C(F)(F)F)cc1 | -1.07% (inactive)
CCC(=O)N1C[C@@H](C)[C@H](OC)CN(C)C(=O)c2ccc(NC(=O)Nc3ccccc3)cc2OC[C@@H]1C | 40.8% (inactive)
C[C@H]1CCCCO[C@H](CN(C)C(=O)NC2CCCCC2)[C@@H](C)CN([C@@H](C)CO)C(=O)c2cc(NC(=O)Nc3ccc4c(c3)OCO4)ccc2O1 | -4.52% (inactive)
C[C@H]1CCCCO[C@H](CN(C)Cc2ccc(C(F)(F)F)cc2)[C@@H](C)CN([C@@H](C)CO)C(=O)c2cc(NC(=O)C3CCCCC3)ccc2O1 | 13.7% (inactive)
CC1CCC(NC(=O)C2c3ccccc3C(=O)N2Cc2ccc3c(c2)OCO3)CC1 (configuration not stated) | 619% (active)
O=C(Nc1ccc(Cl)cc1)C1c2cccc[n+]2CC(=O)N1Cc1ccc2c(c1)OCO2 (configuration not stated) | -9.17% (inactive)
CCc1ccc(CN2C(=O)c3ccccc3C2C(=O)NCC2CCCO2)cc1 (configuration not stated) | -17.4% (inactive)
COc1ccc(S(=O)(=O)Nc2ccc3c(c2)CC(=O)N([C@H](C)CO)C[C@@H](C)[C@H](CN(C)S(=O)(=O)c2c(C)noc2C)O3)cc1 | -0.184% (inactive)
N#C[C@@H]1[C@H](c2ccc(C#Cc3cccc(F)c3)cc2)[C@@H](CO)N1C(=O)C1CCCC1 | -38.1% (inactive)
CN(C)CC(=O)N[C@@H]1CC[C@H](CC(=O)NCc2ccc(Cl)cc2)O[C@H]1CO | -7.2% (inactive)
O=C(NCC[C@@H]1CC[C@H](NC(=O)C2CC2)[C@@H](CO)O1)c1cc(Cl)cc(Cl)c1 | 4.52% (inactive)
C[C@@H]1CN([C@H](C)CO)C(=O)c2cc(-c3ccc(C#N)cc3)cnc2O[C@@H]1CN(C)CC1CC1 | -0.028% (inactive)
CO[C@H]1CN(C)C(=O)c2cc(NS(C)(=O)=O)ccc2OC[C@@H](C)N(Cc2ccccc2)C[C@@H]1C | 1.29% (inactive)
CC(=O)Nc1ccccc1OC(=O)N1CCOCC1 | -18.2% (inactive)
CC(=O)Nc1ccccc1-c1cn(CC(=O)N2CCOCC2)nn1 | 127% (active)
CCOC(=O)c1ccccc1NC(=O)COC(=O)CCC(=O)N1CCOCC1 | 19.5% (inactive)
C[C@H](CO)N1C[C@H](C)[C@H](CN(C)Cc2ccc(Cl)c(Cl)c2)OCCCC[C@H](C)Oc2ccc(NC(=O)NC3CCCCC3)cc2C1=O | -1.13% (inactive)
Cc1ccccc1OC(=O)Cn1c(C(F)(F)F)nc2ccccc21 | -13% (inactive)
CCOCN(C(=O)Cn1c(C(C)O)nc2ccccc21)c1c(C)cccc1CC (configuration not stated) | -13.4% (inactive)

Structure (SMILES) | activity score
CCc1cccc(C)c1N(C(=O)Cn1c(CO)nc2ccccc21)C(C)COC (configuration not stated) | 593% (active)
COc1ccc2c(C)cc(SCC(=O)NCC3CCCO3)nc2c1 (configuration not stated) | -4.78% (inactive)
COc1cc(C(=O)NCc2nnc(SCC(=O)c3ccc(Cl)cc3)o2)cc(OC)c1OC | -3.27% (inactive)
O=C(COc1ccc(Cl)cc1)NCc1nnc(SCC(=O)NCC2CCCO2)o1 (configuration not stated) | 199% (active)
O=S(=O)(N[C@@H]1CC[C@@H](CCn2cc(-c3ccccn3)nn2)O[C@@H]1CO)c1cccc(Cl)c1 | -16.7% (inactive)
C[C@@H]1CN([C@@H](C)CO)C(=O)c2cccc(NC(=O)Nc3ccc4c(c3)OCO4)c2O[C@@H]1CN(C)C(=O)Nc1ccc(F)cc1 | -5.75% (inactive)
CS(=O)(=O)Nc1ccc2c(c1)[C@H]1C[C@@H](CC(=O)N3CCOCC3)O[C@@H](CO)[C@H]1O2 | -23.5% (inactive)
C[C@H](CO)N1C[C@H](C)[C@@H](CN(C)S(C)(=O)=O)Oc2cc(C#CC3CC3)ccc2S1(=O)=O | 13.1% (inactive)
c1ccc(-n2cccc2)c(N2CCCCC2)c1 | 101% (active)
O=C(NC(=S)Nc1ccccc1N1CCCCC1)c1ccc(F)cc1 | -15.2% (inactive)
O=C(Nc1ccccc1N1CCCC1)c1ccc2ccccc2c1 | -12.9% (inactive)
C[C@@H]1CCCCO[C@H](CN(C)Cc2ccccc2)[C@@H](C)CN([C@@H](C)CO)C(=O)c2cc(NC(=O)Nc3ccc(F)cc3)ccc2O1 | 33.7% (inactive)
C[C@H](CO)N1C[C@H](C)[C@@H](CN(C)C)Oc2c(NC(=O)Nc3ccc(F)cc3)cccc2C1=O | 17.5% (inactive)
CC(C)C#Cc1ccc2c(c1)O[C@H](CN(C)Cc1ccccn1)[C@H](C)CN([C@H](C)CO)S2(=O)=O | -7.68% (inactive)
CO[C@H]1CN(C)C(=O)c2cc(NC(=O)C3CCCCC3)ccc2OC[C@H](C)N(C(=O)c2ccccc2)C[C@H]1C | -6.56% (inactive)
C[C@H](CO)N1C[C@H](C)[C@H](CN(C)S(=O)(=O)c2cn(C)cn2)Oc2c(NC(=O)C3CCOCC3)cccc2C1=O | -12.8% (inactive)
COc1ccc(NC(=O)N(C)C[C@H]2OCCCC[C@@H](C)Oc3ccc(NC(=O)NC4CCCCC4)cc3C(=O)N([C@@H](C)CO)C[C@H]2C)cc1 | 107% (active)
COc1ccc(NC(=O)N(C)C[C@H]2OCCCC[C@@H](C)Oc3ccc(NC(=O)NC4CCCCC4)cc3C(=O)N([C@H](C)CO)C[C@H]2C)cc1 | 21.6% (inactive)
COc1ccc(NC(=O)N(C)C[C@@H]2OCCCC[C@@H](C)Oc3ccc(NC(=O)NC4CCCCC4)cc3C(=O)N([C@H](C)CO)C[C@@H]2C)cc1 | 2.02% (inactive)
C[C@@H]1CN([C@H](C)CO)C(=O)c2cc(C#CC3CCCC3)cnc2O[C@H]1CN(C)C(=O)C1CC1 | -6.27% (inactive)
C[C@@H]1CN([C@H](C)CO)C(=O)Cc2cc(NS(=O)(=O)c3ccc(Cl)cc3)ccc2O[C@H]1CN(C)S(=O)(=O)c1cccs1 | -8.01% (inactive)
O=C(Cc1ccncc1)NCC[C@@H]1CC[C@H](NC(=O)Nc2ccc(Cl)cc2)[C@@H](CO)O1 | 34.2% (inactive)
CN1CCN(C(=O)/C(=C\c2cccs2)NC(=O)c2cccs2)CC1 | 0.022% (active)
CC1CCN(C(=O)/C(=C\c2ccccc2)NC(=O)c2ccccc2)CC1 | -8.7% (inactive)
Cc1ccc(C(=O)N/C(=C\c2cn(C)c3ccccc23)C(=O)N2CCN(C)CC2)cc1 | 0.501% (inactive)
CCNC(=O)C[C@@H]1CC[C@@H]2[C@H](COc3ccc(NS(=O)(=O)c4ccccc4C)cc3C(=O)N2C)O1 | -8.72% (inactive)

Structure (SMILES) | activity score
O=C(C[C@@H]1C=C[C@H](NC(=O)c2ccc3c(c2)OCO3)[C@H](CO)O1)NCc1ccc(Oc2ccccc2)cc1 | 8.13% (inactive)
Cc1noc(C)c1S(=O)(=O)N(C)C[C@@H]1OCCCC[C@H](C)Oc2ccc(NC(=O)NC(C)C)cc2C(=O)N([C@H](C)CO)C[C@@H]1C | 27% (inactive)
CC(C)C#Cc1cnc2c(c1)C(=O)N([C@@H](C)CO)C[C@@H](C)[C@@H](CN(C)C(=O)c1cccc(F)c1)O2 | 0.693% (inactive)
C[C@@H]1CCCCO[C@@H](CN(C)C(=O)C2CCCCC2)[C@H](C)CN([C@H](C)CO)C(=O)c2cc(NC(=O)CCC(F)(F)F)ccc2O1 | 21.1% (inactive)
COc1ccccc1CNC(=O)C[C@@H]1CC[C@H](NC(=O)CN(C)C)[C@@H](CO)O1 | -14.1% (inactive)
COc1ccc(NC(=O)Nc2ccc3c(c2)C(=O)N([C@@H](C)CO)C[C@@H](C)[C@H](CN(C)C(=O)CCC(F)(F)F)OCCCC[C@@H](C)O3)cc1 | 5.29% (inactive)
COc1cccc(-c2ccc3c(c2)O[C@H](CN(C)C(=O)c2ccccc2F)[C@@H](C)CN([C@@H](C)CO)S3(=O)=O)c1 | 0.848% (inactive)
CCCNC(=O)[C@@H]1[C@@H](CO)[C@@H]2Cn3c(ccc(-c4cccc(OC)c4)c3=O)[C@H]1N2C(=O)NCCC | 4.04% (inactive)
C[C@H]1CN([C@@H](C)CO)C(=O)Cc2cc(NS(=O)(=O)c3ccc(Cl)cc3)ccc2O[C@H]1CN(C)S(C)(=O)=O | -4.94% (inactive)
Cn1nc(-c2ccccc2)c(-c2nc(-c3ccc(Cl)cc3)no2)c1Cl | -23.8% (inactive)
COc1cc(-c2c(-c3ccc4c(c3)OCO4)noc2C)ccc1F | -5.42% (inactive)
Cc1onc(-c2ccc(Cl)cc2)c1-c1ccnn1S(=O)(=O)c1ccc(Cl)cc1 | 174% (active)
C[C@H]1CN([C@@H](C)CO)S(=O)(=O)c2ccc(Br)cc2O[C@H]1CN(C)C(=O)C1CC1 | 11.3% (inactive)
CO[C@@H]1CN(C)C(=O)c2cc(NC(C)=O)ccc2OC[C@H](C)N(C(=O)Cc2ccccn2)C[C@@H]1C | -3.54% (inactive)
C[C@@H]1CN([C@@H](C)CO)C(=O)c2cc(NC(=O)c3ccncc3)ccc2O[C@H]1CN(C)S(=O)(=O)c1ccc(Cl)cc1 | 0.708% (inactive)
C[C@@H]1CN([C@H](C)CO)C(=O)c2cc(Br)cnc2O[C@@H]1CN(C)C(=O)C1CC1 | -8.5% (inactive)
C[C@H]1CN([C@@H](C)CO)C(=O)c2cc(-c3ccncc3)cnc2O[C@@H]1CN(C)C(=O)C1CCCCC1 | -11.6% (inactive)
C[C@@H]1CN([C@@H](C)CO)C(=O)c2cc(Br)cnc2O[C@@H]1CN(C)C(=O)C1CCCCC1 | 137% (active) and -1.46% (inactive)
CCC(=O)N(C)C[C@H]1Oc2cc(-c3cccc(C#N)c3)ccc2S(=O)(=O)N([C@@H](C)CO)C[C@@H]1C | 12.2% (inactive)
CCS(=O)(=O)Nc1ccc2c(c1)C(=O)N(C)[C@H]1CC[C@H](CC(=O)Nc3ccccc3)O[C@@H]1CO2 | 1.74% (inactive)
CC(C)NC(=O)N[C@H]1CC[C@@H](CCNC(=O)C2CCC2)O[C@@H]1CO | -11.4% (inactive)
COc1ccccc1-c1ccc([C@@H]2[C@@H](CO)N3CCCCN(S(=O)(=O)c4cn(C)cn4)C[C@H]23)cc1 | -0.721% (inactive)
COc1ccc(NC(=O)N(C)C[C@@H]2Oc3ccc(NC(=O)Cn4cnnn4)cc3C(=O)N([C@H](C)CO)C[C@@H]2C)cc1 | 2.52% (inactive)
O=C(N[C@H]1CC[C@H](CCNS(=O)(=O)c2ccc(F)cc2)O[C@H]1CO)c1cccnc1 | -1.19% (inactive)
C[C@H]1CCCCO[C@@H](CN(C)Cc2ccc3c(c2)OCO3)[C@@H](C)CN([C@@H](C)CO)C(=O)c2cc(NC(=O)Nc3ccc(F)cc3)ccc2O1 | 18.3% (inactive)
